# Test results taken from patent US11766405B2, “Process for the preparation of a freeze-dried pharmaceutical composition containing mitomycin C” (MEDAC GESELLSCHAFT FUR KLINISCHE SPEZIALPRAPARATE MBH, priority 2013, dated 2023).
# Test: HPLC determination of impurities / mitomycin purity, process 2 (UV 254 nm)
# Assay type: physicochemical
# Conditions: 89/11 wt.-% tert.-butanol/water, 5° C. with exclusion of light
# Experimental: Further, the content of mitomycin C and impurities in the mixtures obtained was determined after 24 hours' storage at room temperature.
# Determination of the Content of Mitomycin C and of Impurities by High Pressure Liquid Chromatography
# The samples are each diluted to 0.5 mg/ml mitomycin C with N,N-dimethylacetamide. The reference solution contains 0.5 mg/ml mitomycin C in N,N-dimethylacetamide.
# Column: YMC-Pack Phenyl 4.6 mm×300 mm, 10 μm […]
# Purity determinations according to process 2 were performed at different times.
# Solutions of mitomycin C in a mixture of 89 wt.-% tert.-butanol and 11 wt.-% water were prepared. As well as 1.33 mg/g mitomycin C, the solutions also each contained 20 mg/g urea. […]
# Solutions of mitomycin C in a mixture of 89 wt.-% tert.-butanol and 11 wt.-% water were prepared. As well as 1.67 mg/g mitomycin C, the solutions also each contained 25 mg/g urea. […]
structure (smiles),measurement,setting,value
"CO[C@@]12[C@H](COC(N)=O)C3=C(C(=O)C(C)=C(N)C3=O)N1C[C@@H]1N[C@@H]12 [Mitomycin C, (1aS,8S,8aR,8bS)-6-amino-8-[[(aminocarbonyl)oxy]methyl]-1,1a,2,8,8a,8b-hexahydro-8a-methoxy-5-methyl-azirino[2′,3′:3,4]pyrrolo[1,2-a]indol-4,7-dione]",Mitomycin C purity,"Example 7 solution: 1.33 mg/g mitomycin C, 20 mg/g urea, t = 5 h",99.8%
same,Mitomycin C purity,"Example 7 solution: 1.33 mg/g mitomycin C, 20 mg/g urea, t = 22 h",99.8%
same,Mitomycin C purity,"Example 8 solution: 1.67 mg/g mitomycin C, 25 mg/g urea, t = 5 h",99.8%
same,Mitomycin C purity,"Example 8 solution: 1.67 mg/g mitomycin C, 25 mg/g urea, t = 22 h",99.5%
same,Mitomycin C purity,"Example 8 solution: 1.67 mg/g mitomycin C, 25 mg/g urea, t = 27 h",99.5%
